Key:
HIV-1IIIB = assay: MAGI antiviral (entry) assay with HIV-1IIIB in HeLa-derived MAGI-CCR5/CXCR4 cells; assay type: cell-based; conditions: Human immunodeficiency virus 1, MAGI, read-out: HeLa HIV-1IIIB MAGI IC50
CXCR4 = CXCR4 (Homo sapiens, UniProt P61073); assay: Inhibition of SDF-1α-mediated calcium flux in CXCR4-expressing CEM cells; assay type: cell-based; design: CXCR4-expressing CEM cells; endogenous in cells; host or cells: CEM cells; conditions: 5 nM recombinant human SDF-1α; read-out: CEM SDF-1 Ca2+ Flux IC50
MDA-MB-231 cells = assay: Mitochondrial depolarization of MDA-MB-231 breast cancer cells (JC-1 stain)

Protein sequences, listed by entry. Tags and fused reporters are not part of them.
UniProt P61073, whole entry: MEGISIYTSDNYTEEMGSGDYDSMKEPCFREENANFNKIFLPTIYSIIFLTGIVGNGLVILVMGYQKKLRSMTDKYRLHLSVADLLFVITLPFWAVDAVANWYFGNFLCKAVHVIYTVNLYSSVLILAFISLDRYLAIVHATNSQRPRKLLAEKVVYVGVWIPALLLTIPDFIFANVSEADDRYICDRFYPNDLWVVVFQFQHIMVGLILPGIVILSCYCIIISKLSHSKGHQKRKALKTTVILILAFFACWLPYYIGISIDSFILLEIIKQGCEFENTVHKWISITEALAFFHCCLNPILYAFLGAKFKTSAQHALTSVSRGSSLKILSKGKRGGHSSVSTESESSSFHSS

Q: For `c1ccc(CNCCCCN(C[C@H]2Cc3ccccc3CN2)[C@H]2CCCc3cccnc32)nc1` [Compound 2], which IC50 (HIV-1IIIB) is on record?
A: Its IC50 is 120 nM.

Q: And the IC50 (CXCR4)?
A: Its IC50 is 1 nM.

Q: What about the “Depolarization (%)” value (MDA-MB-231 cells; Figure 8A, JC-1 staining) of the same molecule?
A: Its value is 95%.

Q: And the EC50 (MDA-MB-231 cells; Homo sapiens, MDA-MB-231, 24 h, read-out: MDA-MB-231 Depolarization EC50)?
A: Its EC50 is 0.37 nM.

From article PMC5908301, “Small molecule CXCR4 antagonists block the HIV-1 Nef/CXCR4 axis and selectively initiate the apoptotic program in breast cancer cells” (Oncotarget, 2018)
